An excerpt weighted towards active compounds, which were near 1.7% of everything screened.
GLP-1R agonist: GLP-1 receptor (human) agonism | P43220 | HEK293 GLP-1R CRE-luciferase, luminescence, 4-6 h; cells express a hypersensitive GLP-1R form | Potency, µM (titrated, usually from 45.6 µM), for inactives: at the top dose activation, actives largely listed as activators | 0.007% of 380,000 active | AID 624172; also: potency is read from the fitted curve at half-maximal effect; % of control where 0% means no effect
Pin1 inh: human Pin1 inhibition | Potency, µM (doses to about 115 µM), for the others: top-dose activity, negative = inhibition, hits mostly inhibitors | Pin1 FP peptide displacement, HiFluor488, 10 min | 0.009% of 390,000 active; active = well fitted inhibition curve with a large enough effect in the polarisation, with a control signal flat, not every such curve was filed as active; inconclusive = small, poorly fitted or top-dose-only effect, or effect the other way, or a change in a side signal; inactive = no such curve, though single readings can be large or run the other way; the % refers to the polarisation; also: potency is read from the fitted curve at half-maximal effect; % is scaled to controls: 0 for no effect and ±100 for the full control effect
HEK293 tox: cytotoxicity in counter-screen for GLP-1R inverse agonists. AID 624418. 0.13% of 410,000 active. Potency, µM (titrated, usually from 38.3 µM), for inactives: top-dose activity change, negative = inhibition, most hits filed as inhibitors. HEK293 cAMP-luciferase reporter cells, luminescence, 24 h;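 also: loss of luciferase light is scored as toxicity; potency is read from the fitted curve at half-maximal effect; % is scaled to controls: 0 for no effect and ±100 for the full control effect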
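A 23 nL compound transfer followed 12 hours of cell culture at 37 deg C; exposure then lasted 24 hr. Luciferase assay detection reagent was dispensed and plates read for luminescence after a 12 min room-temperature wait.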
miR-21 reporter: raises the signal of a miR-21 reporter; AID 2288; 340,000 tested, under 10 active; Potency, µM (doses to about 38.3 µM), inactives show at the top dose reporter change, positive = more light; HeLa miR-21 FLuc reporter, luciferase, 48 h; active = well fitted rising curve with a large enough effect; inconclusive = small, poorly fitted or top-dose-only effect; inactive = no such curve, though single readings can be large or run the other way;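 note: % of control where 0% means no effect; miR-21 action dims this reporter so a rising signal means less miR-21 action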
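Luminescence from a firefly luciferase reporter carrying a miR-21 binding site downstream, stably expressed under a CMV promoter in HeLa cells that make miR-21 endogenously, reports miRNA modulation after 48 h compound exposure up to approximately 40uM final.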
GLP1R inv ag: acts as inverse agonist at human GLP-1 receptor | P43220 | HEK293 GLP-1R CRE-luciferase, luminescence, 24 h; GLP-1R form is constitutively active | Potency, µM (highest dose often 38.3 µM), for inactives: top-dose activity change, negative = inhibition, usual class: inhibitors | 1.6% of 410,000 active; also: potency is read from the fitted curve at half-maximal effect; % is scaled to controls: 0 for no effect and ±100 for the full control effect; nearly all actives have a fitted effect of over 55% in size
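Readout was luciferase luminescence, measured 12 min after detection reagent at room temperature. Beforehand, GLP-1R reporter HEK293 cells had sat 12 h, then received compounds for 24 hr at 37 deg C.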
PTHR1 ag: agonists of human PTHR1 parathyroid hormone receptor. HEK293 GP2 PTHR1 cells, GloSensor cAMP luminescence, 1 h. Potency, µM (top dose mostly 115 µM), for inactives: top-dose activation, most hits filed as activators. 0.075% of 410,000 active. AID 743266; also: potency is read from the fitted curve at half-maximal effect; nearly all actives have a fitted effect of over 55% in size
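HEK-293-derived GP2 cells expressing PTHR1 and a GloSensor cAMP reporter, 3,000/well, plated overnight, given luciferin plus IBMX (each 0.5 mM as added) for 1 h at 37 °C, then compound for 1 h at 37 °C. Luminescence was read after 15 min at room temperature.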
* = called active by the depositor; i = inactive; ? = inconclusive; · = no result; [ ] = remark or other dose. Unless noted, calls follow the shape of the dose curve; as a rule, active = well fitted curve in the direction sought with a large enough effect; inconclusive = small, poorly fitted or top-dose-only effect, or another doubt; inactive = no such curve, though single readings can be large; an effect the other way counts as inactive or inconclusive.

Start of the data: the first three records (preview)
Results follow in this order: GLP-1R agonist, Pin1 inh, HEK293 tox, miR-21 reporter, GLP1R inv ag, PTHR1 ag
- COc1ccc(CNC(=S)NC(C)CCc2ccccc2)cc1 (stereo not given)
    -1%, 3%, ?, -1%, 10µM*, -2%
- O=C(O)C1=C(CSc2nnnn2CS(=O)(=O)O)CS[C@@H]2[C@H](NC(=O)[C@H](O)c3ccccc3)C(=O)N12
    1%, ·, ·, ·, ·, ·
- COc1cc(CN2CCC(CO)(Cc3cccc(C(F)(F)F)c3)CC2)ccc1F
    -1%, 7%, ?, 4%, 3.2µM*, i

All compounds of this part, repeating the preview:
Results follow in this order: GLP-1R agonist, Pin1 inh, HEK293 tox, miR-21 reporter, GLP1R inv ag, PTHR1 ag
- COc1ccc(CNC(=S)NC(C)CCc2ccccc2)cc1 (stereo not given)
    -1%, 3%, ?, -1%, 10µM*, -2%
- O=C(O)C1=C(CSc2nnnn2CS(=O)(=O)O)CS[C@@H]2[C@H](NC(=O)[C@H](O)c3ccccc3)C(=O)N12
    1%, ·, ·, ·, ·, ·
- COc1cc(CN2CCC(CO)(Cc3cccc(C(F)(F)F)c3)CC2)ccc1F
    -1%, 7%, ?, 4%, 3.2µM*, i
- O=C(NCC(c1ccco1)N1CCCCC1)c1ccc(S(=O)(=O)Nc2ccccc2)cc1 (stereo not given)
    17%, 1%, -8%, ·, ?, -21%
- O=S(=O)(NCC(c1ccco1)N1CCCCC1)c1cccc(C(F)(F)F)c1 (stereo not given)
    3%, 2%, -1%, ·, 11µM*, -15%
- O=C(Cc1cccc(C(F)(F)F)c1)NCC(c1ccco1)N1CCCCC1 (stereo not given)
    2%, -2%, -2%, -1%, ?, i
- O=S(=O)(NCC(c1ccco1)N1CCCCC1)c1ccccc1C(F)(F)F (stereo not given)
    -9%, -14%, -2%, ·, 10µM*, -7%
- Cc1ccc(C2N=C(Nc3nc4ccccc4o3)NC3=C2C(=O)CC(C)(C)C3)cc1 (stereo not given)
    ·, 2%, ·, ·, ·, ·
- Cc1cc(C)c(NC(=O)Cc2csc(C)n2)c(Cl)c1
    ·, -2%, 2%, -19%, 10%, -25%
- OCCn1c(-c2ccc3c(c2)OCO3)csc1=Nc1ccccc1
    -2%, -5%, -29%, 1%, 3.5µM*, -29%
- O=C(Oc1c(Br)cc(C(=S)N2CCOCC2)cc1Br)c1ccc(Cl)cc1
    -8%, -1%, ?, 10%, 10µM*, -7%[57.5 µM]
- O=C(Oc1ccc(C(=S)N2CCOCC2)cc1Br)c1cc(Cl)ccc1Cl
    1%, 5%, -11%, -1%, 3%, i
- Cc1ccc(C23CC4CC(CC(NC(=O)NCCN(C)C)(C4)C2)C3)cc1
    -5%, 4%, ?, -6%, ?, i
- CN(C)CCNC(=O)COc1ccc(C23CC4CC(CC(C4)C2)C3)cc1
    8%, 2%, ?, 15%, 2.8µM*, i
- CC1=C/C(=N\NC(=S)Nc2cccnc2)CC(C)(C)C1
    9%, 56%, 1µM*, 19%, 4µM*, i
- NC(=O)C1CCN(c2ncc(-c3cccc(N4CCCC4)c3)s2)CC1
    ·, 6%, ·, ·, ·, ·
- CC(C)(C)c1ccc(-c2nnc(SCCC#N)n2C2CCCC2)cc1
    3%, -1%, -16%, 11%, 10µM*, -13%[57.5 µM]
- COc1cc(SC)ccc1C(=O)NCCOc1ccc(Cl)cc1
    9%, 1%, -4%, -24%, ?, -28%
- CSc1ccc(Cl)c(C(=O)NCCOc2cc(C(C)C)ccc2C)c1
    -3%, 25%, 3%, -7%, 11µM*, i
- CC1(C(=O)O)CCC2(C)CCC3(C)C(=CC(=O)C4C5(C)CCC(O)C(C)(C)C5CCC43C)C2C1 (stereo not given)
    -3%, ·, ·, ·, ·, ·
- Cc1cccc(N(C(=O)c2csnn2)C(C(=O)NCc2ccccc2)c2ccc(C)o2)c1 (stereo not given)
    12%, -1%, -9%, 8%, ?, i
- CCc1ccc(C(C(=O)NCc2ccc(OC)cc2)N(CCOC)C(=O)Cc2cccs2)cc1 (stereo not given)
    1%, ?, ?, 12%, 10µM*, -20%[57.5 µM]
- COc1ccc(CNC(=O)C(c2ccc(C)o2)N(C(=O)c2csnn2)c2ccc(C(C)C)cc2)cc1 (stereo not given)
    -3%, 11%, -7%, 12%, 10µM*, 8%[57.5 µM]
- COc1ccc(CNC(=O)C(c2ccc(C)o2)N(Cc2cccs2)C(=O)Cc2cccs2)cc1 (stereo not given)
    -6%, 61%, ?, 1%[7.66 µM], 8.9µM*, i
- COCCN(C(=O)Cc1cccs1)C(C(=O)NCc1ccc(OC)cc1)c1ccc(C)cc1 (stereo not given)
    0%, 14%, -1%, 15%, ?, -13%[57.5 µM]
- Cc1cccc(C)c1N(CCCc1cccnc1)C(=O)[C@@H](C)N
    3%, ·, ·, ·, ·, ·
- Cc1c(C(=O)N(Cc2ccccc2)Cc2cccs2)cnn1-c1ccc(Cl)cc1
    15%, 2%, ?, 16%, 5.6µM*, -64%
- Cc1c(C(=O)N(Cc2ccccc2)C(C)C)cnn1-c1ccccc1
    12%, 0%, -16%, -1%, ?, -23%
- Cc1nc([N+](=O)[O-])c(Br)n1Cc1ccc(Cl)c(Cl)c1
    1%, 3%, 10µM*, ?, 10µM*, -54%
- NC(=S)Nc1nc2ccccc2s1
    8%, -9%, ?, -40%, 4.5µM*, -11%
- O=C(NC(=S)Nc1nc2ccccc2s1)c1cccs1
    -5%, 31%, 2.5µM*, -66%, 1%, -55%
- COCC(=O)Nc1nc2ccccc2s1
    4%, -4%, -12%, -43%, 9%, i
- O=C(Cc1ccc(F)cc1)NCCS(=O)(=O)N1CCN(c2cccc(Cl)c2)CC1
    0%, 7%, 2%, ·, 10µM*, -43%
- O=C(Cc1ccccc1)NCCS(=O)(=O)N1CCN(c2cccc(Cl)c2)CC1
    9%, 17%, 19%, ·, ?, i
- CCCCNC(=O)CSc1c2c(nc3ccc(Cl)cc13)CCCC2
    ·, 0%, -12%, 20%, -27%, -79%
- CCCCN(CC)C(=O)CSc1c2c(nc3ccc(Cl)cc13)CCCC2
    ·, 4%, ?, 22%, 10µM*, -24%
- Cc1ccc(Nc2c3c(nc4nncn24)CCC3)cc1C
    ·, 5%, -3%, -6%, 3%, 0%
- CCc1cc(C(=O)Nc2cc(S(=O)(=O)N(CC)CC)ccc2N2CCOCC2)sc1C
    5%, 11%, -2%, ·, 7.9µM*, -12%
- CCN(CC)S(=O)(=O)c1ccc(N2CCOCC2)c(NC(=O)c2cc(C)cc(C)c2)c1
    18%, 17%, 1%, -2%, -22%, i
- O=S(=O)(c1ccc2c(c1)OCCO2)N1CCN(S(=O)(=O)c2cc(F)c(F)cc2F)CC1
    ·, -2%, ·, ·, ·, ·
- c1ccc2c(CCC3CCNCC3)c[nH]c2c1
    6%, ·, ·, ·, ·, ·
- N#C/C(=C\c1ccc(OCc2cccc(C(=O)O)c2)cc1)C(=O)NCc1ccco1
    -6%, -4%, -5%, -50%, 8.9µM*, -30%
- C[C@@]12C(=O)OC(=O)[C@]1(C)C1CCC2O1
    -10%, -1%, ?, ·, 1.8µM*, -69%

Quoted at random: 2 records from the list.
Results follow in this order: GLP-1R agonist, Pin1 inh, HEK293 tox, miR-21 reporter, GLP1R inv ag, PTHR1 ag
- O=S(=O)(c1ccc2c(c1)OCCO2)N1CCN(S(=O)(=O)c2cc(F)c(F)cc2F)CC1
    ·, -2%, ·, ·, ·, ·
- CCN(CC)S(=O)(=O)c1ccc(N2CCOCC2)c(NC(=O)c2cc(C)cc(C)c2)c1
    18%, 17%, 1%, -2%, -22%, i

As entered above:
`O=C(Cc1ccccc1)NCCS(=O)(=O)N1CCN(c2cccc(Cl)c2)CC1` in GLP-1R agonist = 9%
`Cc1ccc(Nc2c3c(nc4nncn24)CCC3)cc1C` in miR-21 reporter = -6%

Assay outcomes from PubChem.
